Results published in patent US11639343B2, “Compounds targeting and degrading BCR-ABL protein and its antitumor application” (ShanghaiTech University, priority 2019, dated 2023).

System: HEK293 (BCR-ABL-) cells
Assay: CCK-8 proliferation inhibition, HEK293 cells;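 note: Ten-point threefold dilution series starting at 10 µM, CCK-8 absorbance at 450 nm read after 2 h reagent incubation, DMSO-treated cells as negative control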
Details: Homo sapiens, HEK293, 48 h, read-out: Proliferative inhibitory activity (IC50, nM) HEK293 (BCR-ABL-)

Cc1nc(Nc2ncc(C(=O)Nc3c(C)cccc3Cl)s2)cc(N2CCN(CCO)CC2)n1 [Dasatinib, reference compound]
IC50: > 10000 nM
